This assay addresses human endothelial lipase (EL) (Homo sapiens (Human), UniProt Q9Y5X9). Briefly: Human endothelial lipase (EL) inhibitory activity using human HDL (NEFA release). The settings on record: read-out: IC50 (50% inhibitory concentration), EL inhibitory activity; human HDL 2 mg/ml substrate, 4-hour reaction at 37° C., NEFA readout.

Amino acid sequences for entries named in this document (tags omitted). Residues count along the entry.
UniProt Q9Y5X9, 21-500 limits assumed: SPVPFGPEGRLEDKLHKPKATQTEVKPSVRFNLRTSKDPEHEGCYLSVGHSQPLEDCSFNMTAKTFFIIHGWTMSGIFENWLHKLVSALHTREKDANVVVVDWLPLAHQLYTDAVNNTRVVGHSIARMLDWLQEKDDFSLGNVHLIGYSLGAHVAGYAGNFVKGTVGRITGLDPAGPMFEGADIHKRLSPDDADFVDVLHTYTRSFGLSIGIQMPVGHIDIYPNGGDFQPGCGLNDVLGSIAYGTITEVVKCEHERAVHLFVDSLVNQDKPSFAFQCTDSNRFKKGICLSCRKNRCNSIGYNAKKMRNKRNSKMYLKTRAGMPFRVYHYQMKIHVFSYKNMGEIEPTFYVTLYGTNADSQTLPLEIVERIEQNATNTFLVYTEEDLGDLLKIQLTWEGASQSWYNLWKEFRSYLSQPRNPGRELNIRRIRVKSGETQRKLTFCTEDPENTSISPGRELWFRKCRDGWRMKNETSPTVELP

Here are results for 2 compounds from US8754113B2, “Oxadiazole derivative having endothelial lipase inhibitory activity” (Shionogi & Co., Ltd., priority 2009, dated 2014).

With `N#CC1(NC(=O)Cc2nnc(Cc3nc4ccc(-c5ccccc5)c(F)c4s3)o2)CC1`, the IC50 was 13 nM.
On to `COc1cc(-c2ccccc2)cc2sc(Cc3nnc(CC(=O)NC4(C#N)CC4)o3)nc12`, for which the IC50 was 8 nM.
